In ChEMBL document CHEMBL1955728, “3,5-Disubstituted indole derivatives as selective human neuronal nitric oxide synthase (nNOS) inhibitors” (Bioorg Med Chem Lett, 2012) one finds Ratio IC50 data, which are given here for one molecule.

SMILES strings stand for the structures.

This assay is filed under the species Homo sapiens. Briefly: Selectivity ratio of IC50 for human eNOS to IC50 for human nNOS.

For the molecule `CN1CCC(c2c[nH]c3ccc(/N=C(\N)c4cccs4)cc23)CC1`, the Ratio IC50 was found to be 24.
